Experimental melting point values from OPERA 2.9

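OPERA's authors assembled the values from existing databases and did not measure them anew. A listed value is a point estimate from one report or more. Method, purity and exact conditions of the single measurements are not given. The measured form (salt, isomer or mixture) is not always the one drawn. Some entries may be limits or estimates that an upstream database listed as plain numbers.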

Melting points are in °C. "n/a" marks a cell with nothing listed here.

* CCCCCCCCCCCCCCCCCC(=O)OC(C)C(=O)OC(C)C(=O)[O-].[Na+] (stereo not given) [Sodium stearoyl lactylate]: melting point 55.95 °C
* CCOC(=O)c1c(C)[nH]c(C(C)=O)c1C: melting point 116 °C
* Cn1c(Cl)c(C=O)c2cc(C=O)ccc21 [2-chloro-1-methyl-1H-indole-3,5-dicarbaldehyde]: melting point 165 °C
* CC(=O)OCC(=O)[C@@]12OC(C)(C)O[C@@H]1C[C@H]1[C@@H]3CCC4=CC(=O)C=C[C@]4(C)[C@@]34O[C@H]4C[C@@]12C: melting point 224.7 °C
* O=S(CCCl)c1ccccc1 (stereo not given) [[(2-Chloroethyl)sulfinyl]benzene]: melting point 35 °C
* NC(=O)NCC(F)(F)F [N-(2,2,2-Trifluoroethyl)urea]: melting point 111 °C
* O=C(O)c1cnn(-c2ccccc2)n1 [2-phenyl-2H-1,2,3-triazole-4-carboxylic acid]: melting point 184 °C
* CSC(=C(C#N)C#N)N1CCOCC1: melting point 144 °C
* COc1cc(C=O)c([N+](=O)[O-])cc1OCc1ccccc1 [4-(Benzyloxy)-5-methoxy-2-nitrobenzaldehyde]: melting point 131 °C
* C[C@]12CCC(=O)C=C1CC[C@@H]1[C@@H]2CC[C@@]2(C)[C@H]1CC[C@]2(O)[C@H](O)CO [17,20,21-Trihydroxypregn-4-en-3-one, (20R)-]: melting point 190 °C
* CCn1c(-c2ccc(Cl)cc2)n[nH]c1=S: melting point 212 °C
* Nc1nc(SCc2ccccc2)n[nH]1 [3-(Benzylsulfanyl)-1H-1,2,4-triazol-5-amine]: melting point 100 °C
* Nc1nnc(-c2cccc([N+](=O)[O-])c2)o1 [5-(3-nitrophenyl)-1,3,4-oxadiazol-2-amine]: melting point 257 °C
* C=C(C#N)C(=O)OCCc1ccccc1 [2-Phenylethyl 2-cyano-2-propenoate]: melting point 34 °C
* CCN(CC)C(=O)Cc1ccccc1 [N,N-Diethylphenylacetamide]: melting point 86 °C
* C=C(C)C(=O)OCCCCCCCCCCCCCC [2-Propenoic acid, 2-methyl-, tetradecyl ester]: melting point 9.85 °C
* CC(C)(C)n1ncc(C#N)c1N [5-amino-1-tert-butyl-1H-pyrazole-4-carbonitrile]: melting point 91 °C
* Nc1ccccc1NC(=O)c1ccncc1 [N-(2-Aminophenyl)pyridine-4-carboxamide]: melting point 180 °C
* Cn1c(=S)[nH]c2sc3c(c2c1=O)CCCC3: melting point 305 °C
* O=C(O)C1=NN(C2CCS(=O)(=O)C2)C(=O)CC1 (stereo not given): melting point 139 °C
* O=C(O)c1ccc(S(=O)(=O)N2CCCCC2)cc1 [4-(Piperidine-1-sulfonyl)-benzoic acid]: melting point 271 °C
* O=C(O)CN1C(=O)c2ccccc2S1(=O)=O: melting point 219 °C
* Cc1cc(Br)cc(C)c1C#N [4-bromo-2,6-dimethylbenzonitrile]: melting point 69 °C
* C[C@H]1CC[C@@H]2[C@@H](C)[C@H]3[C@H](C[C@H]4[C@@H]5CC=C6C[C@@H](O)CC[C@]6(C)[C@H]5C[C@H](O)[C@]34C)N2C1 [Rubijervine]: melting point 242 °C
* CCOC(=O)c1c(N)sc(-c2ccccc2)c1C [Ethyl 2-amino-4-methyl-5-phenylthiophene-3-carboxylate]: melting point 95 °C
* CC(C)c1ccc(Cn2nccc2N)cc1 [1-(4-isopropylbenzyl)-1H-pyrazol-5-amine]: melting point 17 °C
* O=C(O)CCNS(=O)(=O)c1ccc(Br)cc1 [N-(4-Bromobenzene-1-sulfonyl)-beta-alanine]: melting point 162 °C
* CS(=O)(=O)Nc1cccc(C(=O)O)c1 [3-(Methylsulfonamido)benzoic Acid]: melting point 231 °C
* OCc1c(Cl)nc2sccn12 [(6-Chloroimidazo[2,1-b][1,3]thiazol-5-yl)methanol]: melting point 175 °C
* Nc1ccn(-c2ccccc2)n1 [1-Phenyl-1H-pyrazol-3-amine]: melting point 78 °C
* O=Cc1c(F)cc(O)cc1F [2,6-Difluoro-4-hydroxybenzaldehyde]: melting point 180.5 °C
* CC(=O)CC(=O)Nc1ccc(F)cc1 [N-(4-fluorophenyl)-3-oxobutanamide]: melting point 102 °C
* O=C(CCl)c1ccc2c(c1)CCC2 [2-chloro-1-(2,3-dihydro-1H-inden-5-yl)ethanone]: melting point 52.5 °C
* Cc1cc(C(O)(C(F)(F)F)C(F)(F)F)ccc1N [2-(4-Amino-3-methylphenyl)-1,1,1,3,3,3-hexafluoropropan-2-ol]: melting point 135.5 °C
* O=C(O)c1ccc(-c2ccc(Cl)cc2)s1 [5-(4-Chlorophenyl)thiophene-2-carboxylic acid]: melting point 261 °C
* O=C(O)c1ccc(F)c(S(=O)(=O)Cl)c1 [3-(chlorosulfonyl)-4-fluorobenzoic acid]: melting point 139 °C
* COC(=O)c1c(O)cc(=O)n2c1CCCCC2: melting point 223 °C

A selection of 2 entries from above:

SMILES	name	melting point (°C)
CC(C)c1ccc(Cn2nccc2N)cc1	1-(4-isopropylbenzyl)-1H-pyrazol-5-amine	17
COC(=O)c1c(O)cc(=O)n2c1CCCCC2	n/a	223

Source: data files of OPERA 2.9 (Mansouri et al.), github.com/kmansouri/OPERA.